Values after ≈ are worked out from the molar mass of the structure shown. Values joined by “and” are separate entries in the source; they are usually repeats but may differ in a detail not shown here. Equal values may be shown once. “Also recorded” adds a separate entry of the source.
How the values were obtained:
C. albicans (ATCC 14053) = experiment: Anti-microbial assay (CFU survival, EC50) against C. albicans; type: cell-based, Candida albicans; settings: for EC50 against C. albicans: 3 hours, 37° C., 10 mM sodium phosphate pH 7.4, inconsistent colony growth; for EC50: converted with molecular weight
Experimental: C. albicans (ATCC 14053) was grown up in 25 mL of Sabouraud Dextrose (SO) broth for 48 hours at 25° C., after which samples were aliquoted into 2 mL microcentrifuge tubes at 0.5 mL.
On a 96-well plate, 1×10^4 CFU per well of C. albicans were incubated with different peptide concentrations (in serial dilutions of 1:10 and 1:5) starting with […] in a solution of buffer containing 10 mM sodium phosphate at pH 7.4 (3 hours, 37° C.). Serial dilutions were then carried out in 1× Dulbecco's PBS, and samples were plated in triplicate on Sabouraud Dextrose Agar plates, incubated (25° C., 48 hours) and CFUs were counted. C. albicans survival at each peptide concentration was calculated as previously described (Amer et al., supra; de Latour et al., supra), based on the percentage of the number of colonies in each experimental plate relative to the average number of colonies observed for assay cultures lacking peptide. […] In the equation, “Top” and “Bottom” refer to the upper and lower boundaries, and were constrained to values <100% and >0%, respectively. For graphing purposes, samples that had no peptide were plotted at 10^−9 μg/ml peptide. EC50 values were determined by fitting the data from the anti-microbial assays to a standard sigmoidal dose-response curve. Errors were reported based on the standard deviation from the mean of the log EC50 values. 2. Results

S. aureus (ATCC 25923) = experiment: Anti-microbial assay (CFU survival, EC50) against S. aureus; type: cell-based, Staphylococcus aureus; settings: for EC50 of AMPs against S. aureus: 3 hours, 37° C., 10 mM sodium phosphate pH 7.4, ± standard deviation; for EC50: converted from μg/ml with molecular weight of TFA salt
Experimental: S. aureus (ATCC 25923, American Type Culture Collection, Manassas, Va.) was grown in Nutrient Broth (Difco Laboratories, Detroit, Mich.) at pH 7, 37° C., for 24 hours with shaking at 200 rpm. The overnight culture was frozen with 20% glycerol and stored at −80° C. The frozen stock was enumerated (CFU/ml) by dilution plating and growth on Nutrient Agar plates.
For anti-microbial assays, frozen enumerated aliquots were thawed and gently mixed immediately before use. […] Negative control wells contained bacteria with no peptide. […] The EC50 was calculated as previously described (de Latour et al., supra).
Errors were reported based on the standard deviation from the mean of the log10 EC50 values (Gordon et al., supra). 95% confidence intervals were used to determine whether points were statistically different at p=0.05.

S. aureus biofilm = experiment: Biofilm production (crystal violet) and growth (OD600) of S. aureus in TSB; type: cell-based, Staphylococcus aureus; settings: 10 μg/ml peptide, 24 hours
Experimental: Biofilm production was measured as previously described (Durham-Colleran et al., supra) with the following modifications. […] The positive control was S. aureus in TSB with no peptide. Six wells were used for each peptide concentration (n=6). After 24 hours, the optical densities (OD) of the wells were taken at 600 nm to quantify […]. The biofilm production was measured using the crystal violet stain technique (Durham-Colleran et al., supra). All experiments were repeated at least twice.

S. aureus = experiment: Biofilm attachment assay; type: cell-based, Staphylococcus aureus; settings: 1 μg/ml peptide, 1 hour, 37° C.
Experimental: Biofilm attachment assays were performed in 96-well microtiter plates (BD Falcon 353072) as previously described (Overhage et al., supra). Overnight cultures of S. aureus were grown in TSB to an OD600 of about 1.0. […] The plates were incubated (1 hour, 37° C.) to allow the S. aureus to adhere to the wells. The wells were washed and OD600 measurements were taken, as in the biofilm production experiments, and the average absorbance for each treatment was determined (n=16).

P. aeruginosa = experiment: Galleria mellonella infection by P. aeruginosa with AMP and antibiotic treatments; type: in vivo; settings: single dose: 5 μg ciprofloxacin or 10 μg peptide
Experimental: Galleria mellonella (wax moth caterpillars) were obtained from Vanderhorst Wholesale (Saint Marys, Ohio). Eight to twelve caterpillars of equal size/weight were randomly assigned to each group. A 1 mL tuberculin syringe was used to inject 10 μl of 1×10^3 CFU/ml of P. aeruginosa into each caterpillar via the last left proleg. […] Caterpillar control groups included: injected with only PBS, ciprofloxacin, or AMPs. The insects were then observed daily for their survival status.

[1] = system: P. aeruginosa (ATCC 19429); experiment: Anti-microbial assay (CFU survival, EC50) against P. aeruginosa; type: cell-based, Pseudomonas aeruginosa; settings: 3 hours, 37° C., 10 mM sodium phosphate pH 7.4, CFU counts
Experimental: P. aeruginosa (ATCC 19429, American Type Culture Collection, Manassas, Va.) was grown in Nutrient Broth (Difco Laboratories, Detroit, Mich.) at 37° C. for 24 hours with shaking at 200 rpm. The CFU/ml was determined by growth on Nutrient Agar plates. For anti-microbial assays, frozen enumerated aliquots were thawed immediately before use.
Each experiment was repeated at least twice, and a representative experiment is shown, for clarity.

equine erythrocytes = experiment: Hemolysis assay; type: cell-based; settings: 2% horse erythrocytes, up to 100 μg/ml peptide, 1 hour
Experimental: Hemolytic activities of the peptides were determined using equine erythrocytes (Hema Resource Inc., Eugene, Oreg., USA) in an assay adapted to a microtiter plate format (Papanastasiou et al., supra). Briefly, erythrocytes were prepared by centrifuging 1 ml fresh defibrinated blood (1620×g, 10 minutes) and resuspending the pelletted cells in 1 ml sterile PBS (Fisher Scientific) (pH 7). The cells were washed with PBS three times, and in the final wash the cells were re-suspended in 0.75 ml PBS. From this, a 2% erythrocyte suspension was prepared for the assay. Aliquots of sterile water (positive control), peptide, and PBS (negative control) were used in a microtiter plate. Various peptide concentrations in sterile 10 mM sodium phosphate (0.1, 1, 10, and 100 μg/ml) were tested (n=12). The assay was then incubated (1 hour, 37° C.). After centrifugation (1000×g, 10 minutes), aliquots of supernatant were carefully transferred to a new microtiter plate and the absorbance was obtained for each well. Percent hemolysis was calculated as previously described (de Latour et al., supra).

| Compound | EC50 against C. albicans (C. albicans (ATCC 14053)) [µg/mL] | Inhibition of C. albicans (C. albicans (ATCC 14053); at 500 and 100 μg) | EC50 (C. albicans (ATCC 14053)) [µM] | EC50 of AMPs against S. aureus (S. aureus (ATCC 25923)) | EC50 (S. aureus (ATCC 25923)) [µM] | inhibition of biofilm formation (S. aureus biofilm) [%] | attachment of S. aureus to polystyrene wells (S. aureus) | effect on survival of infected G. mellonella (P. aeruginosa) | EC50 of AMPs against P. aeruginosa [1] [µg/mL] | hemolysis (equine erythrocytes) |
| --- | --- | --- | --- | --- | --- | --- | --- | --- | --- | --- |
| CC(C)C[C@H](NC(=O)[C@H](CCCCN)NC(=O)[C@H](CCCCN)NC(=O)[C@H](Cc1ccccc1)NC(=O)[C@H](Cc1ccccc1)NC(=O)[C@H](CCCCN)NC(=O)[C@H](CCCCN)NC(=O)[C@H](Cc1ccccc1)NC(=O)[C@H](CCCNC(=N)N)NC(=O)[C@@H](N)CCCCN)C(=O)N[C@@H](CCCCN)C(N)=O [ATRA-1] | 56.37 (≈ 37.7 µM) | consistently seen | 37.7 | 1.1 µg/mL and 1.5 ± 1.5 µg/mL and 1.06 ± 1.5 µg/mL | 0.44 |  |  |  |  |  |
| C[C@H](NC(=O)[C@H](CCCNC(=N)N)NC(=O)[C@@H](N)CCCCN)C(=O)N[C@@H](CCCCN)C(=O)N[C@@H](CCCCN)C(=O)N[C@@H](Cc1ccccc1)C(=O)N[C@@H](Cc1ccccc1)C(=O)N[C@@H](CCCCN)C(=O)N[C@@H](CCCCN)C(=O)N1CCC[C@H]1C(=O)N[C@@H](CCCCN)C(N)=O [ATRA-2] | 97.27 (≈ 69.2 µM) |  | 69.2 | 37 µg/mL and 37.1 ± 1.6 µg/mL | 16 |  |  |  |  |  |
| CC[C@H](C)[C@H](NC(=O)[C@@H](NC(=O)[C@H](CCCCN)NC(=O)[C@@H]1CCCN1C(=O)[C@H](CCCCN)NC(=O)[C@H](CCCCN)NC(=O)[C@H](Cc1ccccc1)NC(=O)[C@H](Cc1ccccc1)NC(=O)[C@H](CCCCN)NC(=O)[C@H](CCCCN)NC(=O)[C@H](C)NC(=O)[C@H](CCCNC(=N)N)NC(=O)[C@H](CCCCN)NC(=O)[C@H](CCCCN)NC(=O)[C@@H](NC(=O)[C@H](CO)NC(=O)[C@H](CC(N)=O)NC(=O)[C@H](CCCCN)NC(=O)[C@H](CC(C)C)NC(=O)[C@H](CCCCN)NC(=O)[C@H](CCCCN)NC(=O)[C@H](Cc1ccccc1)NC(=O)[C@H](Cc1ccccc1)NC(=O)[C@H](CCCCN)NC(=O)[C@H](CCCCN)NC(=O)[C@H](Cc1ccccc1)NC(=O)[C@H](CCCNC(=N)N)NC(=O)[C@@H](N)CCCCN)C(C)C)C(C)C)C(=O)NCC(=O)N[C@H](C(=O)N[C@H](C(=O)N[C@@H](Cc1ccccc1)C(=O)N1CCC[C@H]1C(=O)N[C@@H](Cc1ccccc1)C(=O)O)[C@@H](C)O)C(C)C [NA-CATH, reference compound] |  |  |  | 5.7 µg/mL and 5.74 ± 1.5 µg/mL | 0.98 | ~50 | did not decrease |  |  |  |
| CC[C@H](C)[C@H](NC(=O)[C@@H](NC(=O)[C@H](CCCCN)NC(=O)[C@H](CC(C)C)NC(=O)[C@H](CCCCN)NC(=O)[C@H](CCCCN)NC(=O)[C@H](Cc1ccccc1)NC(=O)[C@H](Cc1ccccc1)NC(=O)[C@H](CCCCN)NC(=O)[C@H](CCCCN)NC(=O)[C@H](Cc1ccccc1)NC(=O)[C@H](CCCNC(=N)N)NC(=O)[C@H](CCCCN)NC(=O)[C@H](CCCCN)NC(=O)[C@@H](NC(=O)[C@H](CO)NC(=O)[C@H](CC(N)=O)NC(=O)[C@H](CCCCN)NC(=O)[C@H](CC(C)C)NC(=O)[C@H](CCCCN)NC(=O)[C@H](CCCCN)NC(=O)[C@H](Cc1ccccc1)NC(=O)[C@H](Cc1ccccc1)NC(=O)[C@H](CCCCN)NC(=O)[C@H](CCCCN)NC(=O)[C@H](Cc1ccccc1)NC(=O)[C@H](CCCNC(=N)N)NC(=O)[C@@H](N)CCCCN)C(C)C)C(C)C)C(=O)NCC(=O)N[C@H](C(=O)N[C@H](C(=O)N[C@@H](Cc1ccccc1)C(=O)N1CCC[C@H]1C(=O)N[C@@H](Cc1ccccc1)C(=O)O)[C@@H](C)O)C(C)C [NA-CATH:ATRA1-ATRA1] |  |  |  | 1.0 µg/mL and 1.01 ± 1.4 µg/mL |  |  | did not decrease | did not improve survival; also recorded: ineffective at prolonging survival | 0.37 | did not elicit statistically significant hemolysis |

Reference: patent US10174081B2, “Antimicrobial peptides and uses therefore” (priority 2011, dated 2019)
